Laboratory results reported in patent US20230332145A1, “BIFUNCTIONAL MOLECULES AND METHODS OF USING THEREOF” (Flagship Pioneering, Inc., priority 2020, published 2023).

Protein sequences, listed by entry. Tags and fused reporters are not part of them. Lines headed by an entry give the natural chain unless they say otherwise; changes in a name come on top.
UniProt Q06187: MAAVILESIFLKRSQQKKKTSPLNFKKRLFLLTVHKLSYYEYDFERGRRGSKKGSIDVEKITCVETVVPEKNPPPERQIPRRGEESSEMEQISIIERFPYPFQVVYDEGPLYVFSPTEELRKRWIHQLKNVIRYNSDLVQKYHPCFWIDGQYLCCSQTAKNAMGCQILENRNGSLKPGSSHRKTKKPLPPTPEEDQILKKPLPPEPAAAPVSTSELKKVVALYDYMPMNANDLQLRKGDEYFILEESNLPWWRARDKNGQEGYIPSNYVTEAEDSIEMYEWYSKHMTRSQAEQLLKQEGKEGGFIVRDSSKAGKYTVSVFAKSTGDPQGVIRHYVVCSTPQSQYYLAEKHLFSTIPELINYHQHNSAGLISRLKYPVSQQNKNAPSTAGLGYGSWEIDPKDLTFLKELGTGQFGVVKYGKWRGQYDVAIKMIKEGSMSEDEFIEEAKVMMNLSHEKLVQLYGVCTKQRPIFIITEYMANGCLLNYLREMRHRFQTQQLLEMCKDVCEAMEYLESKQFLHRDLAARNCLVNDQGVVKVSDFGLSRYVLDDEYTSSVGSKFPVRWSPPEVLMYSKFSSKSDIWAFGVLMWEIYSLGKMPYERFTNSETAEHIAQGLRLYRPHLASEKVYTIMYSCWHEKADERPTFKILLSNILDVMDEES

Biological target: T1, BTK protein and Cy5-labeled IVT RNA (Homo sapiens, UniProt Q06187)
T1 construct: purchased Active Motif 81083
Experiment: In vitro ternary complex formation assay (PAGE gel shift)
Type: binding
Conditions: 90 minutes room temperature; for ternary complex formation: supershift of BTK protein band in the presence of Cy5-IVT RNA: BTK protein + ASOi + Cy5-IVT RNA
Procedure: In one reaction (#5), 5 pmol antisense RNA oligo of the sequence 5′CGUUAACUAGGCUUUA3′ (hereafter called N33-ASOi) conjugated at the 5′ end with Ibrutinib was mixed in PBS with 1 pmol purified BTK protein (Active Motif #81083), 200 pmol yeast rRNA (as non-specific blocker) and 10 pmol Cy5-labeled IVT RNA of the sequence 5′[…] […] […] AAGGCGAA3′ (SEQ ID NO: 51).
All reactions were incubated at room temperature for 90 minutes protected from light, then mixed with a loading buffer containing final 0.5% SDS and 10% glycerol, and complexes separated by PAGE on a Bis-Tris 4-12% gel including an IRDye700 pre-stained protein molecular weight marker (LiCor). Immediately following electrophoresis, the gel was imaged using a LiCor Odyssey system with the 700 nm channel to identify the position of Cy5-IVT-RNA bands and MW marker. Subsequently, proteins in the gel were stained using InstantBlue colloidal coomassie stain (Expedeon) and re-imaged using transmitted light. The two images were lined up using size markers and lane positions to identify the relative positions of BTK protein bands and Cy5-IVT target RNA. (FIG. 1)
This complex was further confirmed by Cy5-IVT-RNA fluorescence signal overlapping the super-shifted BTK protein band.

| Substance | ternary complex formation: supershift of BTK protein band in the presence of Cy5-IVT RNA | binary complex formation: shift of BTK protein band (purified BTK protein reacted with ASOi) |
| --- | --- | --- |
| N33-ASOi: antisense RNA oligo 5′CGUUAACUAGGCUUUA3′ conjugated at the 5′ end with Ibrutinib (5' Ibrutinib conjugate) | further supershift | increase in MW of the BTK protein band |
| SCR-ASOi: non-complementary RNA oligo 5′AGAGGUGGCGUGGUAG3′ conjugated at the 5′ end with Ibrutinib (5' Ibrutinib conjugate) [reference compound] | complex stayed at arrow B level | – |
